In US9918985B2, “Compounds and their use as BACE inhibitors” (ASTRAZENECA AB, priority 2010, dated 2018):
pIC50: −log10 of the molar value.

Chains of the proteins cited; added tags and fusions are not shown. Residues count along the entry.
UniProt P56817, 22-460: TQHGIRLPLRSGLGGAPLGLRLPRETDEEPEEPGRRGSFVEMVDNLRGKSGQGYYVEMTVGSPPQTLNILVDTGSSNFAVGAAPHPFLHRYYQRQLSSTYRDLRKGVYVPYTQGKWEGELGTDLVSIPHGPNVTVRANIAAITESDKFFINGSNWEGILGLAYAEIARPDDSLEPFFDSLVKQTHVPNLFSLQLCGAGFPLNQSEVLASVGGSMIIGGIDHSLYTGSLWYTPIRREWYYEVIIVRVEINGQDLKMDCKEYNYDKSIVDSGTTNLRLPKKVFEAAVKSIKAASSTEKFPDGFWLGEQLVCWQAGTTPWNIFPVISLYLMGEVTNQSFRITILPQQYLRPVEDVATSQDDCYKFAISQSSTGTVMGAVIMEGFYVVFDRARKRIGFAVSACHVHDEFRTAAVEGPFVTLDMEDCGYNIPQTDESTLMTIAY

How the values were obtained:
[1] = biological target: T1, human β-Secretase (soluble part, sBACE-Fc) (Homo sapiens (Human), UniProt P56817); assay: TR-FRET assay; type: biochemical; details: standard TR-FRET assay, 15 minutes reaction at r.t.
Procedure: (§1) The β-secretase enzyme used in the TR-FRET is prepared as follows:
(§2) The cDNA for the soluble part of the human β-Secretase (AA 1-AA 460) was cloned using the ASP2-Fc10-1-IRES-GFP-neoK mammalian expression vector. The gene was fused to the Fc domain of IgG1 (affinity tag) and stably cloned into HEK 293 cells.
(§3) The robotic systems Biomek FX and Velocity 11 were used for all liquid handling and the enzyme and substrate solutions were kept on ice until they were placed in the robotic system. Enzyme (9 μl) was added to the plate then 1 μl of compound in dimethylsulphoxide was added, mixed and pre-incubated for 10 minutes. Substrate (10 μl) was then added, mixed and the reaction proceeded for 15 minutes at r.t. The reaction was stopped with the addition of Stop solution (7 μl, NaAcetate, pH 9). […] The dimethylsulphoxide control, instead of test compound, defined the 100% activity level and 0% activity was defined by wells lacking enzyme (replaced with reaction buffer).

[2] = biological target: T1, human β-Secretase (soluble part, sBACE-Fc); assay: Diluted TR-FRET assay; type: biochemical; details: footnote a: diluted FRET assay, 50 times less enzyme, 6.5 h reaction time; read-out: IC50 in TR-FRET assay (IC50 from the diluted FRET assay)
Procedure: as §1, §2, §3

Compound	pIC50 [1]	pIC50 [2]
CO[C@H]1CC[C@]2(CC1)Cc1ccc(C#CC(C)(C)C)cc1C21N=C(C)C(N)=N1 (single isomer, unassigned; isomer 2) [Example 20h Isomer 2, (1r,4r)-6′-(3,3-dimethylbut-1-yn-1-yl)-4-methoxy-5″-methyl-3′H-dispiro-[cyclohexane-1,2′-indene-1′,2″-imidazol]-4″-amine]	7.68	
CO[C@H]1CC[C@]2(CC1)Cc1ccc(-c3cc(Br)cc(C#N)c3)cc1C21N=C(C)C(N)=N1 (single isomer, unassigned; isomer 2) [Example 94 Isomer 2, 3-[(1r,4r)-4″-Amino-4-methoxy-5″-methyl-3′H-dispiro[cyclohexane-1,2′-indene-1′,2″-imidazol]-6′-yl]-5-bromobenzonitrile]	5.31	
CO[C@H]1CC[C@]2(CC1)Cc1ccc(-c3cc(Br)cc(C#N)c3)cc1C21N=C(C)C(N)=N1 (single isomer, unassigned; isomer 1) [Example 94 Isomer 1, 3-[(1r,4r)-4″-Amino-4-methoxy-5″-methyl-3′H-dispiro[cyclohexane-1,2′-indene-1′,2″-imidazol]-6′-yl]-5-bromobenzonitrile]		9.15
CC1=NC2(N=C1N)c1cc(-c3cncc(Cl)c3)ccc1CC21CCC(C(F)F)CC1 (stereo not shown) [Example 129, 6′-(5-Chloropyridin-3-yl)-4-(difluoromethyl)-5″-methyl-3′H-dispiro[cyclohexane-1,2′-indene-1′,2″-imidazol]-4″-amine]	6.13	
